Test systems include (R)-[4-^2H]-NADPH; NADH; NADPH.
What all share (test): purified protein, by the assay type
Holding throughout (details): other: OxaD 1 μM, pH 7.6, 1% DMSO, roquefortine C fixed 100 μM for cosubstrates, NADPH fixed 500 μM when roquefortine C varied

Km, kcat and kcat/Km data for 1 substance are collected here from PMC11154958, “Mechanism of Nitrone Formation by a Flavin-Dependent Monooxygenase” (Biochemistry, 2024).

Values joined by “and” are separate entries in the source; they are usually repeats but may differ in a detail not shown here. Equal entries are not always repeated.

What is called Km is the concentration of substrate that gives half-maximal velocity. The kcat is the number of substrate molecules converted per active site and unit of time at saturation. As a reminder, the kcat/Km is the second-order rate constant that governs catalysis at low substrate concentration. With OxaD (Penicillium oxalicum), in the data set on (R)-[4-^2H]-NADPH, the Km amounted to 16 ± 1.0 µM, the catalytic constant (kcat) amounted to 0.4 s⁻¹ and the kcat/Km was 25000 M⁻¹ s⁻¹. Further, in the data set with NADH, the Km was 17 ± 3.0 µM, the kcat came out at 0.7 s⁻¹ and the kcat/Km came out at 43000 M⁻¹ s⁻¹. Also, in the data set on NADPH, the Michaelis-Menten constant (Km) was 24 ± 7.0 µM and 23 ± 4.0 µM; the kcat is 0.93 s⁻¹ and 0.91 s⁻¹; the kcat/Km is 38000 M⁻¹ s⁻¹ and 39000 M⁻¹ s⁻¹.
